Assay results taken from article PMC10526228.

Legend:
Assay in all cases: SPR; cytokine immobilised by amine coupling on a ProteOn GLH chip (ProteOn XPR36); S100A6 as analyte, 63 nM–8 µM, 300 s; 25 °C; 10 mM HEPES, 150 mM NaCl, 1 mM CaCl2, 0.05% Tween 20, pH 7.4; heterogeneous ligand model (single-site scheme for IL-2)
interleukin-21 (human) = interleukin-21 (human) (UniProt Q9HBE4)
interleukin-15 (human) = interleukin-15 (human) (UniProt P40933)
thrombopoietin (human) = thrombopoietin (human) (UniProt P40225)
[1] = molecular target: Fms-related tyrosine kinase 3 ligand (human) (UniProt P49771)
[2] = molecular target: growth hormone variant (human) (UniProt P01242)
interleukin-13 (human) = interleukin-13 (human) (UniProt P35225)
interleukin-26 (human) = interleukin-26 (human) (UniProt Q9NPH9)
interleukin-35 (human) = molecular target: interleukin-35 (human)
[3] = molecular target: granulocyte–macrophage colony-stimulating factor (human) (UniProt P04141)
interleukin-9 (human) = interleukin-9 (human) (UniProt P15248)
interleukin-24 (human) = interleukin-24 (human) (UniProt Q13007)

Kd1 (KD, ligand population 1) (interleukin-21 (human)): 45.7 nM | Kd2 (KD, ligand population 2) (interleukin-21 (human)): 387 nM | kd1 (koff, ligand population 1) (interleukin-21 (human)): 0.000188 s⁻¹ | kd2 (koff, ligand population 2) (interleukin-21 (human)): 0.00568 s⁻¹ | Kd1 (KD, ligand population 1) (interleukin-15 (human)): 57 nM | Kd2 (KD, ligand population 2) (interleukin-15 (human)): 215 nM | kd1 (koff, ligand population 1) (interleukin-15 (human)): 0.000162 s⁻¹ | kd2 (koff, ligand population 2) (interleukin-15 (human)): 0.00629 s⁻¹ | Kd1 (KD, ligand population 1) (thrombopoietin (human)): 0.289 nM | Kd2 (KD, ligand population 2) (thrombopoietin (human)): 3.96 nM | kd1 (koff, ligand population 1) (thrombopoietin (human)): 6e-05 s⁻¹ | kd2 (koff, ligand population 2) (thrombopoietin (human)): 0.00447 s⁻¹ | Kd1 (KD, ligand population 1) [1]: 122 nM | Kd2 (KD, ligand population 2) [1]: 125 nM | kd1 (koff, ligand population 1) [1]: 0.000883 s⁻¹ | kd2 (koff, ligand population 2) [1]: 0.000832 s⁻¹ | Kd1 (KD, ligand population 1) [2]: 46.2 nM | Kd2 (KD, ligand population 2) [2]: 1780 nM | kd1 (koff, ligand population 1) [2]: 7.92e-05 s⁻¹ | kd2 (koff, ligand population 2) [2]: 0.00306 s⁻¹ | Kd1 (KD, ligand population 1) (interleukin-13 (human)): 197 nM | Kd2 (KD, ligand population 2) (interleukin-13 (human)): 1910 nM | kd1 (koff, ligand population 1) (interleukin-13 (human)): 0.000264 s⁻¹ | kd2 (koff, ligand population 2) (interleukin-13 (human)): 0.0136 s⁻¹ | Kd1 (KD, ligand population 1) (interleukin-26 (human)): 278 nM | Kd2 (KD, ligand population 2) (interleukin-26 (human)): 600 nM | kd1 (koff, ligand population 1) (interleukin-26 (human)): 0.000598 s⁻¹ | kd2 (koff, ligand population 2) (interleukin-26 (human)): 0.00256 s⁻¹ | Kd1 (KD, ligand population 1) (interleukin-35 (human)): 2340 nM | Kd2 (KD, ligand population 2) (interleukin-35 (human)): 4650 nM | kd1 (koff, ligand population 1) (interleukin-35 (human)): 0.00259 s⁻¹ | kd2 (koff, ligand population 2) (interleukin-35 (human)): 0.0391 s⁻¹ | Kd1 (KD, ligand population 1) [3]: 2260 nM | Kd2 (KD, ligand population 2) [3]: 3630 nM | kd1 (koff, ligand population 1) [3]: 0.000792 s⁻¹ | kd2 (koff, ligand population 2) [3]: 0.0176 s⁻¹ | Kd1 (KD, ligand population 1) (interleukin-9 (human)): 169 nM | Kd2 (KD, ligand population 2) (interleukin-9 (human)): 271 nM | kd1 (koff, ligand population 1) (interleukin-9 (human)): 0.00597 s⁻¹ | kd2 (koff, ligand population 2) (interleukin-9 (human)): 0.00585 s⁻¹ | Kd1 (KD, ligand population 1) (interleukin-24 (human)): 239 nM | Kd2 (KD, ligand population 2) (interleukin-24 (human)): 601 nM | kd1 (koff, ligand population 1) (interleukin-24 (human)): 0.000573 s⁻¹ | kd2 (koff, ligand population 2) (interleukin-24 (human)): 0.00779 s⁻¹
Substance: S100A6 protein (from UniProt P06703 1-90) (natural protein)
